Data as given in PMC10267539 (EJNMMI Radiopharmacy and Chemistry, 2023).

Tested on: PSMA-expressing LNCaP prostate tumor xenografts
Settings: 1 h post-injection

O=C(O)CC[C@H](NC(=O)N[C@@H](CCCCNC(=O)c1ccc([18F])nc1)C(=O)O)C(=O)O [[^18F]DCFPyL]
kidneys uptake: 118 ± 12.6 %ID/g
liver uptake: 1.83 ± 0.12 %ID/g
salivary glands uptake: 1.27 ± 0.36 %ID/g
spleen uptake: 2.42 ± 1.11 %ID/g
tumor uptake: 10.3 ± 1.28 %ID/g
tumor-to-blood uptake ratio: 16.9 ± 2.93
tumor-to-kidney uptake ratio: 0.09 ± 0.02
tumor-to-liver uptake ratio: 5.69 ± 0.94
tumor-to-muscle uptake ratio: 39.1 ± 13.1
